Data as given in patent publication US20230159509A1 (Amathus Therapeutics, Inc., priority 2020, published 2023).

Protein sequences, listed by entry. Tags and fused reporters are not part of them. Residues count along the entry.
UniProt Q12931, 60-704 limits assumed: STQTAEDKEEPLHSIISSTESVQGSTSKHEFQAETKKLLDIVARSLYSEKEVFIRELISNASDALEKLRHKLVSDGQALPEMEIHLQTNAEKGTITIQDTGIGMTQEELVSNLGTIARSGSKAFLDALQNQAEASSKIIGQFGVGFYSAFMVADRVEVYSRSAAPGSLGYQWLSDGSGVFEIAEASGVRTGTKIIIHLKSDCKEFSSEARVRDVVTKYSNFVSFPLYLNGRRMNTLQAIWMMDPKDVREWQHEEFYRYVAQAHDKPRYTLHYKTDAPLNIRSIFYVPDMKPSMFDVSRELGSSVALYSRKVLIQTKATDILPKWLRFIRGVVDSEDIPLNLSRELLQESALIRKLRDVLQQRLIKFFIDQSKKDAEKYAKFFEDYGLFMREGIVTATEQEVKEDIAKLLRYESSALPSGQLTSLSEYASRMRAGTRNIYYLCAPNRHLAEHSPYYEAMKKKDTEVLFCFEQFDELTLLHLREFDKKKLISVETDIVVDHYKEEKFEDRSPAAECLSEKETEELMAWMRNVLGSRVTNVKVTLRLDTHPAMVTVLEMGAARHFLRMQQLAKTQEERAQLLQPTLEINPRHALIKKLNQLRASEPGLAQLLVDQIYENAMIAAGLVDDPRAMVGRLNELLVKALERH

Target: TRAP1 enzyme (Homo sapiens, UniProt Q12931)
Assay: ADP Glo assay of TRAP1 ATPase activity
Protocol: Potency of test compounds to modulate the ATPase activity of TRAP1 enzyme was evaluated using ADP Glo assay. The assay is based on quantification of the ADP generated from ATP in the ATPase reaction. The assay is performed in two steps; first, after the ATPase reaction an equal volume of ADP-Glo™ Reagent is added to terminate the ATPase reaction and deplete the remaining ATP. Second, the Kinase Detection Reagent is added to simultaneously convert ADP to ATP and allow the newly synthesized ATP to be measured using a luciferase/luciferin reaction.
All the assays were carried out in a 384-well Proxiplate. The buffer used was 25 mM Pipes pH-7.5, 40 mM KCl, 0.05 mM MgCl2, 0.025% BSA, 0.316 mM EGTA, 0.003% Empigen, 0.01% Igepal. 150 nM Trap1 enzyme was incubated with various concentrations of the test compound (0.79 μM-100 μM) at 37° C. for 30 mins (except in blank wells). 20 μM ATP was added to each well to start the reaction. The plate was spun for 1 min at 1200 rpm and then incubated at 37° C. for 60 mins. 5 μl of ADP Glo reagent was added to all the wells and spun the plate for 1 min at 1200 rpm and kept it on a shaker at ambient temperature for 60 mins. 10 μl of kinase detection mix was added to all the wells and the plate was read for Luminescence at 495 nm. The amount of ADP released was estimated from ATP/ADP standard curve generated at the same experimental conditions. […]

## COc1ncc(NC(=O)c2c3c(nn2C)CCC3)cc1S(=O)(=O)Nc1ccc(Cl)cc1
Maximal percent activation
  ADP GLO DRC: Mean Emax: C (“C” refers to 160-199%, inclusive)
read-out: ADP GLO DRC: GeoMean EC50, concentration for half maximal activation
  EC50: 10 to 20 µM
